From publication PMC5799168, “Ubiquinone binding site of yeast NADH dehydrogenase revealed by structures binding novel competitive- and mixed-type inhibitors” (Scientific Reports, 2018)

Target: T1, Ndi1 (Saccharomyces cerevisiae, UniProt P32340)
T1 construct: The mature Ndi1, which lacks a mitochondrial targeting; (His)10; made in house; host or cells: E. coli BL21(DE3)pLysS, plasmid pET16b(NDI1-m)
T1 sequence (P32340 27-513): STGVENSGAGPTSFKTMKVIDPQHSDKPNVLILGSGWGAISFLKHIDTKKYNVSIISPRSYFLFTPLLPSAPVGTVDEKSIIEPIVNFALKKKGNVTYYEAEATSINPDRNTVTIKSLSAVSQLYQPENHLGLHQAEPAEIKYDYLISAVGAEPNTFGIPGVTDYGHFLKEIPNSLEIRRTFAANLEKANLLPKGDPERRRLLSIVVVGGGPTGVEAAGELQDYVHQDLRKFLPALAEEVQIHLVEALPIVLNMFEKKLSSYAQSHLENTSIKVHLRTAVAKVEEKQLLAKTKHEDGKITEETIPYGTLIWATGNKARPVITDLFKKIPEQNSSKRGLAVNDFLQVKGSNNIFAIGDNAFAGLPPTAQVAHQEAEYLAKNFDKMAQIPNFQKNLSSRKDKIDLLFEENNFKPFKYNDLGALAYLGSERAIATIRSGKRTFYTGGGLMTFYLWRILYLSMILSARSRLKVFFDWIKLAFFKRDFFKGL
Assay: Inhibition of NADH-ubiquinone-1 oxidoreductase activity of the purified Ndi1
Format: biochemical
Method: NADH-ubiquinone oxidoreductase activity was measured as described previously. In brief, the reaction was started by adding 100 µM NADH to the enzyme mixture containing 10 ng/mL Ndi1, 50 mM sodium phosphate (pH 6.0) and 1 mM EDTA, which was pre-incubated with various concentrations of ubiquinone-1 for 1 min. […] The concentrations of inhibitors required to obtain the half-maximal inhibition (IC50) were estimated by non-linear regression dose-response curves. The inhibition mode of each inhibitor for ubiquinone-1 was determined by the intersection point in double-reciprocal plots (Fig. 2B–E). To objectively evaluate the inhibition mode, the data of the inhibition kinetics were fitted to the Eq.
This equation provides two dissociation constants, one for the binary enzyme-inhibitor complex (Ki), the other for the ternary enzyme-substrate-inhibitor complex (αKi).

**Q.** With `CO/C(=C/C(N)=O)[C@H](C)[C@H](/C=C/c1csc(-c2csc([C@@H](C)/C=C/C=C/C(C)C)n2)n1)OC` [Myxothiazol, myxothiazol] as the molecule, how does the Inhibition mode (inhibition mode for ubiquinone-1, from intersection point in Lineweaver-Burk plots, 100 µM NADH) read?
**A.** mixed

**Q.** And the “α (α > 0)” value (α of mixed model inhibition fit (αKi = dissociation constant of ternary enzyme-substrate-inhibitor complex), mean ± S.D.)?
**A.** 70.2±192
